# US20250236627A1, “CERTAIN OCTAHYDROFURO[3,4- B]PYRAZINES AS GLP-1 RECEPTOR MODULATORS” (ASTRAZENECA AB, priority 2021, published 2025)
# By UniProt entry, the sequences of proteins in these tests, tags left out.
# UniProt Q14432, whole entry: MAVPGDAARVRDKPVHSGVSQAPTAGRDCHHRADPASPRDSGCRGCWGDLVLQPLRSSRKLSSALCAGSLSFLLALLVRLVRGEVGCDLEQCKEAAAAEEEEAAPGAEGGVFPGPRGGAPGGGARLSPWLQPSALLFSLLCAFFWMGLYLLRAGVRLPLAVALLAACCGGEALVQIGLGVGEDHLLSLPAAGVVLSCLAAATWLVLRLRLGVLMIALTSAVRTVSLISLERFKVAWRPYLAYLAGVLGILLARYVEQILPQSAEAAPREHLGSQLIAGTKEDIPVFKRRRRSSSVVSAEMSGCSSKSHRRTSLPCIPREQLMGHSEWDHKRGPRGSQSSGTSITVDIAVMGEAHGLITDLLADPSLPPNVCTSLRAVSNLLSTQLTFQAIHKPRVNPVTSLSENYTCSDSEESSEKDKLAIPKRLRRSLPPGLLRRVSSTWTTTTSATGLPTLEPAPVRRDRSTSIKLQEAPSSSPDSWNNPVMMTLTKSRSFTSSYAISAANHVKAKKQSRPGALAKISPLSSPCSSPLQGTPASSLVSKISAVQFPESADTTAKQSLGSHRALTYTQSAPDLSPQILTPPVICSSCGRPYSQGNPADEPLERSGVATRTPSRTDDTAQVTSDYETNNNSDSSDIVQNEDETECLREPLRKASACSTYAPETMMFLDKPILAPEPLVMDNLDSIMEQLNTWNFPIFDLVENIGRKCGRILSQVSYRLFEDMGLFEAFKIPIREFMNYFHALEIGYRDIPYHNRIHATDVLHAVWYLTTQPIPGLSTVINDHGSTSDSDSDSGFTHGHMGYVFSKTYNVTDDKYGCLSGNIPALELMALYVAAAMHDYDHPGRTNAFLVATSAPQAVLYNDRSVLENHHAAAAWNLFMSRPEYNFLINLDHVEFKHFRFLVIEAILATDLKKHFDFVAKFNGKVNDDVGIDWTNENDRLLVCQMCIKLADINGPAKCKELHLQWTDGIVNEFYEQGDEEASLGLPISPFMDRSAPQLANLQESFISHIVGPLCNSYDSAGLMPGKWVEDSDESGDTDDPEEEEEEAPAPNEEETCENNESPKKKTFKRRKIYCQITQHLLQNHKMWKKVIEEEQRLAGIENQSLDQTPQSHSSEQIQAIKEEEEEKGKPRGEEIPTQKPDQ
# Biological target: human phosphodiesterase-3A (Homo sapiens, UniProt Q14432)
# Assay: PDE3 Assay
# Conditions: read-out: PDE3 IC50; human recombinant enzyme expressed in Sf9 cells; formation of 5′AMP from cAMP
# Method: Evaluation of the effects of compounds on the activity of the human phosphodiesterase-3A is quantified by measuring the formation of 5′AMP from cAMP using a human recombinant enzyme expressed in Sf9 cells.
# The test compound, reference compound or water (control) are added to a buffer containing 40 mM Tris/HCl (pH 7.4) and 8 mM MgCl2, 450 nM cAMP and 0.25 μCi [^3H]cAMP.
# Thereafter, the reaction is initiated by addition of the enzyme (about 1 U) and the mixture is incubated for 20 min at 22° C.
# For basal control measurements, the enzyme is omitted from the reaction mixture.
# Following incubation SPA beads are added. After 30 min at 22° C. under shaking, the amount of [^3H]5′AMP is quantified with a scintillation counter (Topcount, Packard).
# The results are expressed as a percent inhibition of the control enzyme activity. The standard inhibitory reference compound is milrinone (CAS number 78415-72-2), which is tested in each experiment at several concentrations to obtain an inhibition curve from which its IC50 value is calculated.
smiles,measurement,value
Cc1cc(Cc2nc3ccc(C(=O)O)cc3n2C[C@@H]2CCO2)c(F)cc1-c1cccc(OCc2ccc(C#N)cc2F)n1,IC50,5 µM
